The assay has as its target Delta-type opioid receptor (Rattus norvegicus, UniProt P33533). Nature of the assay: Compound was evaluated for its binding affinity against enkephalin delta receptor using [3H]DPDPE as ligand in rat cerebrum in vitro.

Sequences of proteins named here, by UniProt entry; tags and fusion partners are left off.
UniProt P33533, whole entry: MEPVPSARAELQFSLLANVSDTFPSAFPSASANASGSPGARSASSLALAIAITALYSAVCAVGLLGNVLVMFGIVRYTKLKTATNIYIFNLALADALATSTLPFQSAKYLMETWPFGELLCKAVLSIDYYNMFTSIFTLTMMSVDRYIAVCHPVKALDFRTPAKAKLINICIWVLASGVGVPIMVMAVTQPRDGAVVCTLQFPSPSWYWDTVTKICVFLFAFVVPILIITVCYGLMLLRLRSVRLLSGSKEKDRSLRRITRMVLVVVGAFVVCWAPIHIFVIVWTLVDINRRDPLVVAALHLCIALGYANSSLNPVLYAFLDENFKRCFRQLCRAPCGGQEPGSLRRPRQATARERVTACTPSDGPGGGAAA

Here are results for one molecule from ChEMBL document CHEMBL1126401, “New potent enkephalin analogs containing trifluoromethylamino acid residues” (Bioorg Med Chem Lett, 1992).

`CSCC[C@H](NC(=O)[C@H](Cc1ccccc1)NC(=O)CNC(=O)CNC(=O)[C@@H](N)Cc1ccc(O)cc1)C(=O)O`: the IC50 is 1 nM.

The term IC50 denotes the midpoint of a concentration-inhibition curve. Low readings indicate greater potency, high ones weaker potency.
